Here are results for 16 compounds from patent US8628750B2, “Cancer imaging and treatment” (Technische Universitat Munchen, priority 2006, dated 2014).

By UniProt entry, the sequences of proteins in these tests, tags left out.
UniProt P61073, whole entry: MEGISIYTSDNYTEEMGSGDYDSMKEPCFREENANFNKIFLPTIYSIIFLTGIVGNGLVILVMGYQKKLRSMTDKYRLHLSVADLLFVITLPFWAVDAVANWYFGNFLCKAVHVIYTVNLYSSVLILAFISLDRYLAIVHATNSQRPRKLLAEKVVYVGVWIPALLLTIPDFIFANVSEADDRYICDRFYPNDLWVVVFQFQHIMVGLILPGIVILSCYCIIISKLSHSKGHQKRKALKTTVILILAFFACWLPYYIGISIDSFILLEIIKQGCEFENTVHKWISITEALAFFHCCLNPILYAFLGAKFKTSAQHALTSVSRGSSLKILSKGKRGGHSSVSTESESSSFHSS

The target of this experiment is human CXCR4 (Homo sapiens, UniProt P61073). Nature of the experiment: cell-based. The arrangement: Jurkat cells that endogenously express the CXCR4 receptor; endogenous in cells; host or cells: Jurkat (ATCC). The class given is binding. Here is the method: For receptor binding assays cells were resuspended in PBS/0.2% BSA. […] Cell bound radioactivity was determined by using a gamma counter.
Regarding `C[C@@H]1NC(=O)[C@@H](Cc2ccc(O)cc2)NC(=O)CNC(=O)[C@H](Cc2ccc3ccccc3c2)NC(=O)[C@H](CCCNC(=N)N)NC(=O)[C@H](CCCNC(=N)N)NC1=O` [BL135, cyc[D-Tyr-Ala-Arg-Arg-Nal-Gly]], the IC50 (in general, the point on the concentration scale where inhibition reaches its midpoint) is more than 1 µM. The result for `C[C@H]1NC(=O)CNC(=O)[C@H](Cc2ccc3ccccc3c2)NC(=O)[C@H](CCCNC(=N)N)NC(=O)[C@H](CCCNC(=N)N)NC(=O)[C@@H](Cc2ccc(O)cc2)NC1=O` [BL136, cyc[D-Ala-D-Tyr-Arg-Arg-Nal-Gly]] reads more than 1 µM; that for `C[C@@H]1NC(=O)CNC(=O)[C@H](Cc2ccc3ccccc3c2)NC(=O)[C@H](CCCNC(=N)N)NC(=O)[C@H](CCCNC(=N)N)NC(=O)[C@@H](Cc2ccc(O)cc2)NC1=O` [BL137, cyc[Ala-D-Tyr-Arg-Arg-Nal-Gly]], approximately 1 µM.

Take `C[C@H]1NC(=O)[C@H](CCCNC(=N)N)NC(=O)[C@H](CCCNC(=N)N)NC(=O)[C@@H](Cc2ccc(O)cc2)NC(=O)CNC(=O)[C@H](Cc2ccc3ccccc3c2)NC1=O` [BL 37, cyc[D-Tyr-Arg-Arg-D-Ala-Nal-Gly]]: the IC50 was approximately 1 µM. The same measure for `C[C@@H]1NC(=O)[C@@H](C)NC(=O)[C@H](CCCNC(=N)N)NC(=O)[C@H](CCCNC(=N)N)NC(=O)[C@@H](Cc2ccc(O)cc2)NC(=O)CNC1=O` [BL 39, cyc[D-Tyr-Arg-Arg-D-Ala-Ala-Gly]]: more than 1 µM. Take `CC(F)C(=O)NC[C@@H]1NC(=O)[C@H](Cc2ccc3ccccc3c2)NC(=O)[C@H](CCCNC(=N)N)NC(=O)[C@H](CCCNC(=N)N)NC(=O)[C@@H](Cc2ccc(O)cc2)NC(=O)CNC1=O` (stereo partly drawn) [BL 58, cyc[D-Tyr-Arg-Arg-Nal-Dap(FP)-Gly]]: the IC50 is approximately 1 µM. Regarding `CN1C(=O)[C@H](CCCNC(=N)N)NC(=O)[C@@H](Cc2ccc(O)cc2)NC(=O)CNC(=O)[C@H](Cc2ccc3ccccc3c2)N(C)C(=O)[C@@H]1CCCNC(=N)N` [OD12, cyc[(Me)Arg-(Me)Nal-Gly-D-Tyr-Arg]], the IC50 is more than 1 µM. For `CN1CC(=O)N[C@H](Cc2ccc(O)cc2)C(=O)N(C)[C@@H](CCCNC(=N)N)C(=O)N[C@@H](CCCNC(=N)N)C(=O)N[C@@H](Cc2ccc3ccccc3c2)C1=O` [OD15, cyc[Arg-Nal-(Me)Gly-D-Tyr-(Me)Arg]], the IC50 lay within 0.3 to 0.4 µM. With `CN1C(=O)CNC(=O)[C@H](Cc2ccc3ccccc3c2)NC(=O)[C@H](CCCNC(=N)N)NC(=O)[C@H](CCCNC(=N)N)N(C)C(=O)[C@H]1Cc1ccc(O)cc1` [OD16, cyc[Arg-Nal-Gly-(Me)D-Tyr-(Me)Arg]], the IC50 was approximately 1 µM. `CN1CC(=O)N[C@H](Cc2ccc(O)cc2)C(=O)N[C@@H](CCCNC(=N)N)C(=O)N[C@@H](CCCNC(=N)N)C(=O)N(C)[C@@H](Cc2ccc3ccccc3c2)C1=O` [OD18, cyc[Arg-(Me)Nal-(Me)Gly-D-Tyr-Arg]]: the IC50 was more than 1 µM.

As for `CN1CC(=O)N[C@H](Cc2ccc(O)cc2)C(=O)N[C@@H](CCCNC(=N)N)C(=O)N(C)[C@@H](CCCNC(=N)N)C(=O)N[C@@H](Cc2ccc3ccccc3c2)C1=O` [OD19, cyc[(Me)Arg-Nal-(Me)Gly-D-Tyr-Arg]], the IC50 was more than 1 µM. The same measure for `CN1C(=O)[C@H](CCCNC(=N)N)NC(=O)[C@H](CCCNC(=N)N)N(C)C(=O)[C@@H](Cc2ccc(O)cc2)NC(=O)CNC(=O)[C@@H]1Cc1ccc2ccccc2c1` [OD20, cyc[Arg-(Me)Nal-Gly-D-Tyr-(Me)Arg]]: 0.1 to 0.2 µM; for `CN1C(=O)[C@@H](Cc2ccc(O)cc2)NC(=O)CNC(=O)[C@H](Cc2ccc3ccccc3c2)NC(=O)[C@H](CCCNC(=N)N)N(C)C(=O)[C@@H]1CCCNC(=N)N` [OD21, cyc[(Me)Arg-Nal-Gly-D-Tyr-(Me)Arg]]: more than 1 µM; for `NCCC[C@@H]1NC(=O)[C@H](CCCN)NC(=O)[C@@H](Cc2ccc(O)cc2)NC(=O)CNC(=O)[C@H](Cc2ccc3ccccc3c2)NC1=O` [OD23, cyc[Nal-Gly-D-Tyr-Orn-Orn]]: more than 1 µM. As to `N=C(N)NCCC[C@@H]1NC(=O)[C@@H](Cc2ccc(O)cc2)NC(=O)CNC(=O)[C@H](Cc2ccc3ccccc3c2)NC(=O)[C@H](CCCN)NC1=O` [OD24, cyc[Nal-Gly-D-Tyr-Arg-Orn]], the IC50 was approximately 1 µM. The result for `NC(=O)NCCC[C@@H]1NC(=O)[C@H](CCCNC(N)=O)NC(=O)[C@@H](Cc2ccc(O)cc2)NC(=O)CNC(=O)[C@H](Cc2ccc3ccccc3c2)NC1=O` [OD26, cyc[Nal-Gly-D-Tyr-Cit-Cit]] reads more than 1 µM.
